From patent publication EP2970215B1, “PYRROLIDINE DERIVATIVES, PHARMACEUTICAL COMPOSITIONS CONTAINING THEM, AND THEIR USE IN THERAPY” (AbbVie Deutschland GmbH & Co. KG, priority 2013, dated 2014)

Target: T1, human GlyT1c transporter (Homo sapiens, UniProt P48067)
T1 construct: expressed in transfected cells; host or cells: CHO cells (recombinant; line hGlyT1c_5_CHO is named for the uptake assay)
T1 sequence (P48067 1-706): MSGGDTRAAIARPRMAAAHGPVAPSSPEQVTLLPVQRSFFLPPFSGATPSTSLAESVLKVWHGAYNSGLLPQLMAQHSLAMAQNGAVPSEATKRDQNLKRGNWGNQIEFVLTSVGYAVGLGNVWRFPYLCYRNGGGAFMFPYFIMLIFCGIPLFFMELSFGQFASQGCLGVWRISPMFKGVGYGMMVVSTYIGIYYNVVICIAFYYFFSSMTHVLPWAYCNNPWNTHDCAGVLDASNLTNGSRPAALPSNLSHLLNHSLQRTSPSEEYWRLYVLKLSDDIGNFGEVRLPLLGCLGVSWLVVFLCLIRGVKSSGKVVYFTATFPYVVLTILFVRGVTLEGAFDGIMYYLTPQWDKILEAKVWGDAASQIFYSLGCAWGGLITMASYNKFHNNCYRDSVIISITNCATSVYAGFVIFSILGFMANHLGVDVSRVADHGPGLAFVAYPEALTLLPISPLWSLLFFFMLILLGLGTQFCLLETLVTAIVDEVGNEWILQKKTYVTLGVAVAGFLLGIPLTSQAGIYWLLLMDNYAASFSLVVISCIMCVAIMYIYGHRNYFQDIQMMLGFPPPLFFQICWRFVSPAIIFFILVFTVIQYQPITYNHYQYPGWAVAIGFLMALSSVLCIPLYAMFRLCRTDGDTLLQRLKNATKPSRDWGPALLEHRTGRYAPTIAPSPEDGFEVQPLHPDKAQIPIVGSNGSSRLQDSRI
Assay: Radioligand binding assay using recombinant CHO cell membranes expressing human GlyT1
Settings: radioligand binding to human GlyT1c transporter-expressing membranes

N-[trans-1-(ethylsulfonyl)-4-phenylpyrrolidin-3-y]-4-(trifluoromethyl)benzamide [Example 122]
Ki: ≤ 10 µM
